Inhibition data for 1 molecule are collected here from ChEMBL document CHEMBL6087457.

The chains behind the UniProt entries cited, without tags or fusion partners. Where a name states a change or a piece, a line headed by the entry shows the natural chain unless it says otherwise.
UniProt P53668: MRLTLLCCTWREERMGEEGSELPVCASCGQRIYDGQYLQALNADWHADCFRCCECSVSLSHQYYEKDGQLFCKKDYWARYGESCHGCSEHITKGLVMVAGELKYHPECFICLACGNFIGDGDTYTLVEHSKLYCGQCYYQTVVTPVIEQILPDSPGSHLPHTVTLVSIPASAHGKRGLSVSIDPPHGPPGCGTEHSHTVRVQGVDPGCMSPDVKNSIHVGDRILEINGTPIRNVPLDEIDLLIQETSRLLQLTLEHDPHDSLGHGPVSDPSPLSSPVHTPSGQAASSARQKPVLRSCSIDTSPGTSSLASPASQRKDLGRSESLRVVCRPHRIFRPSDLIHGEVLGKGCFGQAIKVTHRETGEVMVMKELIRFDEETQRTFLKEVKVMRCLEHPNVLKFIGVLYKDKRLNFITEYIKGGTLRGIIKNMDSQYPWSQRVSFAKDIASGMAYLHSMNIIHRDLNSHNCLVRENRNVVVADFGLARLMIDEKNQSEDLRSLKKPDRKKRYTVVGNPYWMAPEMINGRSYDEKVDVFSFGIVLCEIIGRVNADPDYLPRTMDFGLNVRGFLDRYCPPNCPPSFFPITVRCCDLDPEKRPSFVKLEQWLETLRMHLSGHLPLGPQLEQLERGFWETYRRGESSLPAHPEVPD

The target of experiment [1] is LIM domain kinase 1 (Mus musculus) (UniProt P53668). Kind of experiment: Ex vivo inhibition of LIMK in hippocampus of mouse assessed as reduction in p-cofilin level at 3 uM incubated for 30 mins by Western blot analysis. The experiment is classed as functional. The procedure, abridged:
(§1)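 Acute hippocampal slices from P7–9 WT and Fmr1 KO mice, incubated with vehicle (DMSO) or 3 μM LIMK inhibitor. p-Cofilin and total cofilin measured by Western blot and expressed as a p-cofilin/cofilin ratio. n = 2–4 animals per group. Significance by one-way ANOVA with Dunnett's multiple comparisons test.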
For orientation: A western blot detects proteins with antibodies after separation by electrophoresis.

For experiment [2] the target is unchanged. The experiment is described as follows: Ex vivo inhibition of LIMK in hippocampus of Fmr1 KO mouse model of FXS assessed as reduction in p-cofilin level at 3 uM incubated for 30 mins by Western blot analysis. In kind it is functional. In a few lines: as §1

The structures appear in SMILES notation. Calls of active or inactive are those of the source. The rule behind the calls is not given here.

As for `O=C(c1ccc(S(=O)(=O)Nc2ccccc2)cc1)N(Cc1ccc(NCCO)cc1)CC1CC1`, the inhibition result in experiment [1] and in experiment [2] was “Active” throughout.
